# From patent publication US20240139115A1, “Novel Method for Preparation of Nanoparticles Comprising Cell Penetrating Peptides” (CELLPEPT SWEDEN AB, priority 2021, published 2024)
# [ ]: non-standard residue; d: D form. The star is where a group is joined. Stearoyl = CCCCCCCCCCCCCCCCCC(=O)*; Orn = NCCC[C@H](N)C(=O)O
# System: HeLa pLuc705 cells
# Assay: Splicing correction luciferase assay (Kole's assay)
# Settings: PF14 dissolved in dimethyl formamide or tetrahydrofuran with ethanol or 2-propanol (1/9); 100 nM SCO-705, 500 nM PF14, 24 h; FIG. 4
substance,measurement,value
PepFect 14 (Stearoyl-AGYLLGKLL[Orn][Orn]LAAAAL[Orn][Orn]LL-NH2) [PF14],splicing redirection compared to water-solubilised CPP,more efficiently redirect splicing
